Here are results for 1 molecule from article PMC7179994 (2019).

Protein sequences, listed by entry. Tags and fused reporters are not part of them. Lines headed by an entry give the natural chain unless they say otherwise; changes in a name come on top.
UniProt P33151: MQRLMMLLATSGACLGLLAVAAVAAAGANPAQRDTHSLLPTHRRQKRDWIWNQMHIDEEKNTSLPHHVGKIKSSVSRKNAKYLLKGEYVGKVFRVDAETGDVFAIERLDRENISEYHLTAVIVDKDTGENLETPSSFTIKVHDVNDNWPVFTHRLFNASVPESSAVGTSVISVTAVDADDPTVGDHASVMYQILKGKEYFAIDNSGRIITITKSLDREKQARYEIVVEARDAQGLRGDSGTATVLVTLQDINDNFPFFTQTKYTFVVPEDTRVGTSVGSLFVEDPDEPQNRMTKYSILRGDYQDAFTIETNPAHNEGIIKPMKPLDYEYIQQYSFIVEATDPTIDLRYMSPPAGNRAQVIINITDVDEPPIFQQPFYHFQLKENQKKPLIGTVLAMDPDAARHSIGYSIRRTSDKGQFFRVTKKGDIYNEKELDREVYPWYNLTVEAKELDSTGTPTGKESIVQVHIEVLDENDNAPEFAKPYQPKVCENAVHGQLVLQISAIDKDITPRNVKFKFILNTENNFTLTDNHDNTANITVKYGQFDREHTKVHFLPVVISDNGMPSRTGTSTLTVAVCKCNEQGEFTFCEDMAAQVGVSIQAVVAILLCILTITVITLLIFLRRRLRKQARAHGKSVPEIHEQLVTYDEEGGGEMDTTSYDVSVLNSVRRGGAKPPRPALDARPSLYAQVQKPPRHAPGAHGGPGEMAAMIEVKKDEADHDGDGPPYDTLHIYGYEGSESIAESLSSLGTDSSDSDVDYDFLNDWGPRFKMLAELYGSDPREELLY

The experiment has as its target T1, VE-cadherin VE-cad(1-5), five extracellular domains (Homo sapiens, UniProt P33151).
T1 chain: MQRLM
In words: SPR. A general note: Surface plasmon resonance follows binding to a sensor surface in real time, without labels.

B1: NDSK-II fragment of fibrin NDSK-II (central region) (protein)
chain 1: ADSGEGDFLAEGGGVRGPRVVERHQSACKDSDWPFCSDEDWNYKCPSGCRMKGLIDEVNQDFTNRINKLKNSLFEYQKNNKDSHSLTTNIMEILRGDFSSANNRDNTYNRVSEDLRSRIEVLKRKVIEKVQHIQLLQKNVRAQLVDMKRLEVDIDIKIRSCRGSCSRALAREVDLKDYEDQQKQLEQVIAKDLLPSRDRQHLPLIKMKPVPDLVPGNFKSQLQKVPPEWKALTDMPQMRMELERPGGNEITRGGSTSYGTGSETESPRNPSSAGSWNSGSSGPGSTGNRNPGSSGTGGTATWKPGSSGPGSTGSWNSGSSGTGSTGNQNPGSPRPGSTGTWNPGSSERGSAGHWTSESSVSGSTGQWHSESGSFRPDSPGSGNARPNNPDWGTFEEVSGNVSPGTRREYHTEKLVTSKGDKELRTGKEKVTSGSTTTTRRSCSKTVTKTVIGPDGHKEVTKEVVTSEDGSDCPEAMDLGTLSGIGTLDGFRHRHPDEAAFFDTASTGKTFPGFFSPMLGEFVSETESRGSESGIFTNTKESSSHHPGIAEFPSRGKSSSYSKQFTSSTSYNRGDSTFESKSYKMADEAGSEADHEGTHSTKRGHAKSRPVRDCDDVLQTHPSGTQSGIFNIKLPGSSKIFSVYCDQETSLGGWLLIQQRMDGSLNFNRTWQDYKRGFGSLNDEGEGEFWLGNDYLHLLTQRGSVLRVELEDWAGNEAYAEYHFRVGSEAEGYALQVSSYEGTAGDALIEGSVEEGAEYTSHNNMQFSTFDRDADQWEENCAEVYGGGWWYNNCQAANLNGIYYPGGSYDPRNNSPYEIENGVVWVSFRGADYSLRAVRMKIRPLVTQ
chain 2: QGVNDNEEGFFSARGHRPLDKKREEAPSLRPAPPPISGGGYRARPAKAAATQKKVERKAPDAGGCLHADPDLGVLCPTGCQLQEALLQQERPIRNSVDELNNNVEAVSQTSSSSFQYMYLLKDLWQKRQKQVKDNENVVNEYSSELEKHQLYIDETVNSNIPTNLRVLRSILENLRSKIQKLESDVSAQMEYCRTPCTVSCNIPVVSGKECEEIIRKGGETSEMYLIQPDSSVKPYRVYCDMNTENGGWTVIQNRQDGSVDFGRKWDPYKQGFGNVATNTDGKNYCGLPGEYWLGNDKISQLTRMGPTELLIEMEDWKGDKVKAHYGGFTVQNEANKYQISVNKYRGTAGNALMDGASQLMGENRTMTIHNGMFFSTYDRDNDGWLTSDPRKQCSKEDGGGWWYNRCHAANPNGRYYWGGQYTWDMAKHGTDDGVVWMNWKGSWYSMRKMSMKIRPFFPQQ
chain 3: YVATRDNCCILDERFGSYCPTTCGIADFLSTYQTKVDKDLQSLEDILHQVENKTSEVKQLIKAIQLTYNPDESSKPNMIDAATLKSRKMLEEIMKYEASILTHDSSIRYLQEIYNSNNQKIVNLKEKVAQLEAQCQEPCKDTVQIHDITGKDCQDIANKGAKQSGLYFIKPLKANQQFLVYCEIDGSGNGWTVFQKRLDGSVDFKKNWIQYKEGFGHLSPTGTTEFWLGNEKIHLISTQSAIPYALRVELEDWNGRTSTADYAMFKVGPEADKYRLTYAYFAGGDAGDAFDGFDFGDDPSDKFFTSHNGMQFSTWDNDNDKFEGNCAEQDGSGWWMNKCHAGHLNGVYYQGGTYSKASTPNGYDNGIIWATWKTRWYSMKKTTMKIIPFNRLTIGEGQQHHLGGAKQVRPEHPAETEYDSLYPEDDL
One may read the Kd as the equilibrium constant for the complex coming apart. A higher Kd goes with a looser complex. Take B1: the equilibrium dissociation constant (Kd) was found to be 97 nM.
